{"sequences": {"note": "The chains behind the UniProt entries cited, without tags or fusion partners.", "UniProt P15428, whole entry": "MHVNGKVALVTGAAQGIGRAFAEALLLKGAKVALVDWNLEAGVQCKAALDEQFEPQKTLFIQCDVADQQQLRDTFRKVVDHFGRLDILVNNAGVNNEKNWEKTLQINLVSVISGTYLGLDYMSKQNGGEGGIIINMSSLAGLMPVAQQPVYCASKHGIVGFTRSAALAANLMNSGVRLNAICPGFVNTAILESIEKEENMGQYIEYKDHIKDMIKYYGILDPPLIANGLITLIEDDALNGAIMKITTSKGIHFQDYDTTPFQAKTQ"}, "source": "PubChem BioAssay AID894", "about": "(National Center for Advancing Translational Sciences (NCATS), 2007)", "note": "Values joined by “and” are separate entries in the source; they are usually repeats but may differ in a detail not shown here. Identical values can stand only once. The list shows a part of the results, in another mix than the full data. Results filed as inconclusive are left out. Some structures show a salt or complex split into parts, the way the source records it. Active and inactive are the calls of the source. The call rests on the fitted dose curve; in most records, active means well fitted inhibition curve with a large enough effect (not every such curve was filed as active); inconclusive means small, poorly fitted or top-dose-only effect, or another doubt; inactive means no such curve, though single readings can be large or run the other way. On the % scale 0 is the no-effect control and ±100 the full control effect; potency means the concentration at half of the fitted maximal effect.", "data": [{"molecular_target": "15-hydroxyprostaglandin dehydrogenase [NAD(+)] (Homo sapiens) (UniProt P15428)", "assay": "qHTS Assay for Inhibitors of HPGD (15-Hydroxyprostaglandin Dehydrogenase); on activity change, negative = inhibition: test concentration not given here", "details": "purified HPGD, NADH fluorescence kinetic, PGE2 substrate; activity change, negative = inhibition: active compounds read low", "values": [{"smiles": "CCC(C)N(CC(C)C)C(=S)SC(NC(C)=O)C(Cl)(Cl)Cl", "note": "(configuration not stated)", "activity change, negative = inhibition": "inactive: -28.6%"}, {"smiles": "O=C(O)[C@@H](O)c1ccc([As](=O)(O)O)cc1", "activity change, negative = inhibition": "inactive: -6.31%"}, {"smiles": "O=C(COc1ccccc1)OC1CN2CCC1CC2", "note": "(configuration not stated)", "activity change, negative = inhibition": "inactive: 3.31%"}, {"smiles": "[Au].[Au].c1ccc([PH+](c2ccccc2)c2ccccc2)cc1.c1ccc([PH+](c2ccccc2)c2ccccc2)cc1.n1n[nH]c(-c2nnn[nH]2)n1", "Potency": "active: 1.58 µM"}, {"smiles": "COP1(=S)c2c(C)nn(CCC#N)c2N=C(c2ccc(F)cc2)N1C", "note": "(configuration not stated)", "activity change, negative = inhibition": "inactive: -16.2%"}, {"smiles": "CN(N=O)C(=N)N[N+](=O)[O-]", "activity change, negative = inhibition": "inactive: -7.7%"}, {"smiles": "CP(=O)(Nc1ccccc1Br)Oc1ccccc1", "note": "(configuration not stated)", "Potency": "active: 11.2 µM"}, {"smiles": "O=[N+]([O-])c1cc([N+](=O)[O-])c(-c2ccn[nH]2)s1", "activity change, negative = inhibition": "inactive: -7.14%"}, {"smiles": "CCN(CC)C(=S)SC(NC=O)C(Cl)(Cl)Cl", "note": "(configuration not stated)", "activity change, negative = inhibition": "inactive: -14.2%"}, {"smiles": "O=[As]c1ccc(S(=O)(=O)NCCO)cc1", "note": "(configuration not stated)", "activity change, negative = inhibition": "inactive: -12.4%"}, {"smiles": "ClCCSc1nnc(-c2cccnc2)o1", "activity change, negative = inhibition": "inactive: -28.2%"}, {"smiles": "Cc1ccc2nc3c(c(C)c2c1)CC(C(Cl)Cl)S3", "note": "(configuration not stated)", "activity change, negative = inhibition": "inactive: -19.3%"}, {"smiles": "NC(=O)Nc1cc([As](=O)(O)O)cc(I)c1O", "activity change, negative = inhibition": "inactive: 1.79%"}, {"smiles": "c1ccc(P(c2ccccc2)c2ccccc2)cc1", "activity change, negative = inhibition": "inactive: -5.59%"}, {"smiles": "O=C(OC1CN2CCC1CC2)C12CC3CC(CC(C3)C1)C2", "note": "(configuration not stated)", "activity change, negative = inhibition": "inactive: -10.8%"}, {"smiles": "Cc1ccc(NCCc2c([N+](=O)[O-])cc([N+](=O)[O-])cc2[N+](=O)[O-])cc1", "activity change, negative = inhibition": "inactive: -5.68%"}, {"smiles": "O=C(CC(=O)c1ccccc1)O[C@H]1CN2CCC1CC2", "activity change, negative = inhibition": "inactive: -11.9%"}, {"smiles": "NS(=O)(=O)Cc1ccc([As](=O)(O)O)cc1", "activity change, negative = inhibition": "inactive: -2.6%"}, {"smiles": "Cc1ccc(C)c(NP(C)(=O)Oc2ccccc2)c1", "note": "(configuration not stated)", "Potency": "active: 28.2 µM"}, {"smiles": "Cc1cccc(OCC(=O)OC2CN3CCC2CC3)c1", "note": "(configuration not stated)", "activity change, negative = inhibition": "inactive: 1.01%"}, {"smiles": "CN(C(=O)Cc1ccc(Cl)c(Cl)c1)[C@@H]1CC[C@]2(CCCO2)C[C@H]1N1CCCC1", "activity change, negative = inhibition": "inactive: -11.9%"}, {"smiles": "CCOP1(=S)c2c(C)nn(CCC#N)c2N=C(c2ccc(F)cc2)N1C", "note": "(configuration not stated)", "activity change, negative = inhibition": "inactive: -14.8%"}, {"smiles": "CN(C(=O)Cc1ccccc1)[C@@H]1CC[C@]2(CCCO2)C[C@H]1N1CCCC1", "activity change, negative = inhibition": "inactive: -25.5%"}, {"smiles": "O=[N+]([O-])c1ccc2c(c1)nnn2O", "activity change, negative = inhibition": "inactive: -21%"}, {"smiles": "O=[N+]([O-])CC(O)c1ccc([N+](=O)[O-])cc1", "note": "(configuration not stated)", "activity change, negative = inhibition": "inactive: -27.6%"}, {"smiles": "NC(=O)Nc1ccc([As](=O)(O)O)cc1", "activity change, negative = inhibition": "inactive: -8.17% and inactive: -7.51%"}, {"smiles": "O=[As](O)(O)c1ccc([As](=O)(O)O)cc1", "activity change, negative = inhibition": "inactive: 4.38%"}, {"smiles": "CCOP1(=S)c2c(C)nn(CCC#N)c2N=C(c2ccccc2F)N1C", "note": "(configuration not stated)", "activity change, negative = inhibition": "inactive: -3.22%"}, {"smiles": "Cc1ccc(OCC(=O)OC2CN3CCC2CC3)cc1", "note": "(configuration not stated)", "activity change, negative = inhibition": "inactive: -2.19%"}, {"smiles": "CN1CCCCC1COC(=O)C1(O)c2ccccc2CCc2ccccc21", "note": "(configuration not stated)", "activity change, negative = inhibition": "inactive: -9.76%"}, {"smiles": "Cc1nn(-c2ccccc2)c2c1P(=O)(N1CCOCC1)N(C)C(c1ccccc1)=N2", "note": "(configuration not stated)", "activity change, negative = inhibition": "inactive: -6.51%"}, {"smiles": "COc1cc(C2NCCC3(OCCO3)C2(C)C)cc(OC)c1OC.O=[N+]([O-])c1cc([N+](=O)[O-])c(O)c([N+](=O)[O-])c1", "note": "(configuration not stated)", "activity change, negative = inhibition": "inactive: -0.336%"}, {"smiles": "CN(C(=O)Cc1ccc(Cl)c(Cl)c1)[C@@H]1CCCC[C@H]1N1CCCC1", "activity change, negative = inhibition": "inactive: -25.2%"}, {"smiles": "CN(CCCl)Cc1cc(Cl)c(NC2=NCCN2)c(Cl)c1", "activity change, negative = inhibition": "inactive: -12.7%"}, {"smiles": "C[C@@H](O)COc1ccc([As](=O)(O)O)cc1N", "activity change, negative = inhibition": "inactive: 0.0241%"}, {"smiles": "CCN(CCCl)Cc1ccccc1C", "activity change, negative = inhibition": "inactive: -15%"}, {"smiles": "Cc1ccccc1NP(C)(=O)Nc1ccccc1C", "Potency": "active: 8.91 µM"}, {"smiles": "CP(=O)(Nc1ccc2c(c1)OCCO2)Oc1ccccc1", "note": "(configuration not stated)", "Potency": "active: 10 µM"}, {"smiles": "CN1CCC[C@H](OC(=O)C(c2ccccc2)c2ccccc2)C1", "activity change, negative = inhibition": "inactive: -2.35%"}, {"smiles": "c1nnnn1CCn1cnnn1", "activity change, negative = inhibition": "inactive: 2.23%"}, {"smiles": "CC(C)C(=O)NC(Sc1ccccc1)C(Cl)(Cl)Cl", "note": "(configuration not stated)", "activity change, negative = inhibition": "inactive: -5.92%"}, {"smiles": "O=P(Nc1nccs1)(c1ccccc1)c1ccccc1", "activity change, negative = inhibition": "inactive: -7.12%"}, {"smiles": "O=C(OC1CN2CCC1CC2)c1cccc(Cl)c1", "note": "(configuration not stated)", "activity change, negative = inhibition": "inactive: 4.08%"}, {"smiles": "C(Cc1nn[nH]n1)Cc1nn[nH]n1", "activity change, negative = inhibition": "inactive: -13.6%"}, {"smiles": "CCN(CCO)CCO.Oc1c(Cl)c(Cl)c(Cl)c(Cl)c1Cl", "Potency": "active: 4.47 µM"}, {"smiles": "CC(=O)NC(SC(=S)N(C)C)C(Cl)(Cl)Cl", "note": "(configuration not stated)", "activity change, negative = inhibition": "inactive: -9.64%"}, {"smiles": "[N-]=[N+]=Nc1ccc([As](=O)(O)O)cc1", "activity change, negative = inhibition": "inactive: -8.15%"}, {"smiles": "Cc1cc([N+](=O)[O-])cc([N+](=O)[O-])c1O", "activity change, negative = inhibition": "inactive: -4.4%"}, {"smiles": "CN(C)CCOC(=O)C(O)(c1ccccc1)C1CCCCC1", "note": "(configuration not stated)", "activity change, negative = inhibition": "inactive: -0.522%"}, {"smiles": "CP(=O)(Nc1ccccc1)Oc1ccc(F)cc1", "note": "(configuration not stated)", "Potency": "active: 31.6 µM"}, {"smiles": "CCN(CC)CCCOC(=O)C(O)(c1ccccc1)C1CCCCC1", "note": "(configuration not stated)", "activity change, negative = inhibition": "inactive: 2.74%"}, {"smiles": "CCC(=O)N1C2C3N(C(=O)CC)C1C1N(C(=O)CC)C(C(N1C(=O)CC)N3C(=O)CC)N2C(=O)CC", "activity change, negative = inhibition": "inactive: -0.124%"}, {"smiles": "CN(C(=O)Cc1ccc(Cl)c(Cl)c1)[C@@H]1CCCC[C@@H]1N1CCCC1", "activity change, negative = inhibition": "inactive: -12.9%"}, {"smiles": "CC(=O)NC(SC(=S)N(CC(C)C)CC(C)C)C(Cl)(Cl)Cl", "note": "(configuration not stated)", "activity change, negative = inhibition": "inactive: -9.53%"}, {"smiles": "COC(=O)c1cc2c(s1)N=C(c1ccccc1)N(C)P2(=O)N1CCOCC1", "note": "(configuration not stated)", "activity change, negative = inhibition": "inactive: -17.8%"}, {"smiles": "CCOC(=O)c1ccc(NP(C)(=O)Oc2ccc(F)cc2)cc1", "note": "(configuration not stated)", "Potency": "active: 17.8 µM"}, {"smiles": "CCOC(=O)NC(Sc1ccccc1)C(Cl)(Cl)Cl", "note": "(configuration not stated)", "activity change, negative = inhibition": "inactive: -1.42%"}, {"smiles": "O=C(OCCN1CCN(CCOCc2ccccc2)CC1)C(O)(c1ccccc1)c1ccccc1", "activity change, negative = inhibition": "inactive: 2.77%"}, {"smiles": "CP(=O)(Nc1ccccc1F)Oc1ccccc1", "note": "(configuration not stated)", "Potency": "active: 7.08 µM"}, {"smiles": "O=P1(Nc2nc3ccc(Cl)cc3s2)COc2ccccc2O1", "note": "(configuration not stated)", "activity change, negative = inhibition": "inactive: -13.1%"}, {"smiles": "NCC[C@@H](N)CSP(=O)(O)O", "activity change, negative = inhibition": "inactive: 1%"}, {"smiles": "COc1ccccc1OP(C)(=O)Nc1ccc(C)cc1C", "note": "(configuration not stated)", "Potency": "active: 1.58 µM"}, {"smiles": "Cc1c2non([O-])c-2c(C)[n+](=O)[n+]1[O-]", "activity change, negative = inhibition": "inactive: -17.8%"}, {"smiles": "CC(C)CC(=O)NC(Sc1ccc(Cl)cc1)C(Cl)(Cl)Cl", "note": "(configuration not stated)", "activity change, negative = inhibition": "inactive: -11.6%"}, {"smiles": "CN(C)CCOC(=O)C(O)(c1ccccc1)C1CCCC1", "note": "(configuration not stated)", "activity change, negative = inhibition": "inactive: -5.67%"}, {"smiles": "CN1CCCC(OC(=O)C(c2ccccc2)c2ccccc2)C1", "note": "(configuration not stated)", "activity change, negative = inhibition": "inactive: -7.67%"}, {"smiles": "O=[N+]([O-])c1ccc(C[As](=O)(O)O)cc1", "activity change, negative = inhibition": "inactive: -5.63%"}, {"smiles": "CCN(N=Nc1nonc1N)c1nonc1N", "activity change, negative = inhibition": "inactive: -8.39%"}, {"smiles": "C(Cc1nn[nH]n1)c1nn[nH]n1", "activity change, negative = inhibition": "inactive: -1.81%"}, {"smiles": "CCOP(=O)(Nc1ccccc1)OCC", "activity change, negative = inhibition": "inactive: -5.13%"}, {"smiles": "O=C(CO)Nc1ccc([As](=O)(O)O)cc1", "activity change, negative = inhibition": "inactive: -6.24%"}, {"smiles": "CC1CCN(C(=O)Oc2c(Cl)cc(Cl)c3cccnc23)CC1", "activity change, negative = inhibition": "inactive: -2.81%"}, {"smiles": "CC(=O)C1=CCCC2CCC1N2", "note": "(configuration not stated)", "activity change, negative = inhibition": "inactive: -7.89%"}, {"smiles": "CN(C)C(=O)OCCc1n(C)cc[n+]1C", "activity change, negative = inhibition": "inactive: -1.82%"}, {"smiles": "O=[N+]([O-])c1cccc2n[nH]nc12", "activity change, negative = inhibition": "inactive: -10.1%"}, {"smiles": "CC(=O)N1C2C3N(C(C)=O)C1C1N(C(C)=O)C(C(N1C(C)=O)N3C(C)=O)N2C(C)=O", "activity change, negative = inhibition": "inactive: -4.49%"}, {"smiles": "CCN(CC)CC(O)COC(=O)C(O)(c1ccccc1)C1CCCCC1", "note": "(configuration not stated)", "activity change, negative = inhibition": "inactive: -0.91%"}]}]}
